Data as given in PubChem BioAssay AID1863 (Southern Research Specialized Biocontainment Screening …, 2009).
The entries are a selection whose mix differs from that of the whole data set. Results with a measured potency or affinity are listed apart. Some salts or complexes appear as unconnected parts, following the source record. The source made the active and inactive calls.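 The calls were made as follows: active = inhibition over 29.93%, a cutoff 3 SD above the screen mean, later confirmed by dose response; inconclusive = inhibition over 29.93% but no dose response follow-up; inactive = inhibition at most 29.93% or unconfirmed.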

Experiment: inhibitors of PhoP regulon expression, primary screen, Salmonella Typhimurium, GFP reporter (AID 1863);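 also: 0% = low Mg2+ inducing control and 100% = high Mg2+ repressing control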
Conditions: S. Typhimurium PhoP-regulated promoter GFP reporter, 4 h; at 50 µM; active compounds read high

| Compound | inhibition |
| --- | --- |
| CN(C)CCOC(=O)C(O)(c1ccccc1)C1CCCCC1 (stereo not drawn) | inactive: 6.68% |
| COc1ccc(NP(C)(=O)Oc2ccccc2OC)cc1 (stereo not drawn) | inactive: 6.47% |
| COc1ccc(OP(C)(=O)Nc2cccc(Br)c2)cc1 (stereo not drawn) | inactive: -9.93% |
| Cc1ccccc1NP(C)(=O)Nc1ccccc1C | inactive: 4.36% |
| CP(=O)(Nc1ccc2c(c1)OCCO2)Oc1ccccc1 (stereo not drawn) | inactive: -2.79% |
| CCOP(C)(=S)SCC(=O)NC(C)(CC)C(=O)O (stereo not drawn) | inactive: -7.82% |
| CP(=O)(Nc1ccc(SC(F)(F)F)cc1)Oc1ccc(F)cc1 (stereo not drawn) | inactive: -8.9% |
| COc1ccc2c(c1O)-c1c(O)c(OC)cc3c1[C@H](C2)[N+](C)(C)CC3.O=[N+]([O-])c1cc([N+](=O)[O-])c([O-])c([N+](=O)[O-])c1[O-] | inactive: -9.75% |
| O=C(OC1CN2CCC1CC2)c1ccc([N+](=O)[O-])cc1 (stereo not drawn) | inactive: -4.18% |
| O=C(OCCN1CCN(CCOCc2ccccc2)CC1)C(O)(c1ccccc1)c1ccccc1 | inactive: -0.5% |
| CP(=O)(Nc1ccccc1F)Oc1ccccc1 (stereo not drawn) | inactive: 17.8% |
| CC(C)c1ccc(OP(C)(=O)Nc2ccc(SC(F)(F)F)cc2)cc1 (stereo not drawn) | inactive: -33.3% |
| CP(=O)(Nc1ccccc1)Oc1ccc(F)cc1 (stereo not drawn) | inactive: 0.84% |
| CCCCCOc1ccc(NP(C)(=O)Oc2ccc(Cl)cc2Cl)cc1 (stereo not drawn) | inactive: -6.68% |
| O=[N+]([O-])c1cc([N+](=O)[O-])c(OC2CCCCC2O)c([N+](=O)[O-])c1 (stereo not drawn) | inactive: 1.53% |
| CCN(CC)CCCOC(=O)C(O)(c1ccccc1)C1CCCCC1 (stereo not drawn) | inactive: 5.56% |
| CCOC(=O)c1ccc(NP(C)(=O)Oc2ccc(F)cc2)cc1 (stereo not drawn) | inactive: 8.75% |
| COc1ccc(OP(C)(=O)Nc2ccc(SC(F)(F)F)cc2)cc1 (stereo not drawn) | inactive: -11.1% |
| CP(=O)(Nc1ccc(Cl)cc1Cl)Oc1ccccc1 (stereo not drawn) | inactive: 7.22% |
| CP(=O)(OCCOc1ccccc1)OCCOc1ccccc1 | inactive: 4.94% |
| Cc1nc2ccc3ccccc3c2o1.O=[N+]([O-])c1cc([N+](=O)[O-])c(O)c([N+](=O)[O-])c1 | inactive: 6.37% |
| COc1ccccc1OP(C)(=O)Nc1ccc(C)c(C)c1 (stereo not drawn) | inactive: -3.08% |

| Compound | inhibition |
| --- | --- |
| COc1ccc(OP(C)(=O)Nc2ccccc2Br)cc1 (stereo not drawn) | inactive: 1.83% |
| Cc1cc(C)cc(OP(C)(=O)Nc2cccc(C(F)(F)F)c2)c1 (stereo not drawn) | inactive: -1.77% |
| CP(=O)(Nc1ccccn1)Oc1ccccc1 (stereo not drawn) | inactive: 4.9% |
| COc1ccccc1OP(C)(=O)Nc1ccc(C)cc1C (stereo not drawn) | inactive: 1.8% |
| CCc1ccc(OP(C)(=O)O)cc1 | inactive: -7.62% |
| Cc1c(NP(C)(=O)Oc2ccc(C(C)C)cc2)c(=O)n(-c2ccccc2)n1C (stereo not drawn) | inactive: -3.02% |
| O=[N+]([O-])c1cc([N+](=O)[O-])c(Nc2ccccn2)c([N+](=O)[O-])c1 | inactive: 2.94% |
| COc1ccc(OP(C)(=O)Nc2ccccn2)cc1 (stereo not drawn) | inactive: -2.32% |
| CN(C)CCOC(=O)C(O)(c1ccccc1)C1CCCC1 (stereo not drawn) | inactive: 3.96% |
| COc1ccccc1OP(C)(=O)Nc1ccc(Br)cc1 (stereo not drawn) | inactive: -0.02% |
| CN(C)C(=O)c1c([N+](=O)[O-])cc([N+](=O)[O-])cc1[N+](=O)[O-] | inactive: -7.04% |
| COc1ccccc1OP(C)(=O)Nc1ccccc1Br (stereo not drawn) | inactive: -7.78% |
| CC(C)(C)c1ccc(OP(C)(=O)O)cc1 | inactive: 0.11% |
| CP(=O)(Nc1ccc(Cl)cc1)Oc1ccc(F)cc1 (stereo not drawn) | inactive: -0.82% |
| O=C(OCCCN1CCCC1)C(O)(c1ccccc1)C1CCCCC1 (stereo not drawn) | inactive: -2.52% |
| CP(=O)(Oc1ccccc1)N1CCOC1=O (stereo not drawn) | inactive: 14.6% |
| CCc1ccc(OP(C)(=O)Nc2cccnc2)cc1 (stereo not drawn) | inactive: -10.3% |
| CCN(CC)CC(O)COC(=O)C(O)(c1ccccc1)C1CCCCC1 (stereo not drawn) | inactive: 7.09% |
| COc1ccc(OP(C)(=O)Nc2ccc(Br)cc2)cc1 (stereo not drawn) | inactive: 15.5% |
| CCOC(=O)c1ccc(NP(C)(=O)Oc2ccc(Cl)cc2)cc1 (stereo not drawn) | inactive: -0.05% |
| CP(=O)(OC12CC3CC(CC(C3)C1)C2)OC12CC3CC(CC(C3)C1)C2 | inactive: 5.1% |
